Experiment [1] has as its target T1, human noradrenaline transporter (hNET) (Homo sapiens, UniProt P23975).
T1 construct: expressed in transfected cells; host or cells: COS-7 cells (ATCC), transient transfection with metafectene
As to the kind of experiment: biochemical. In kind it is binding. As to conditions: for IC50: Av IC50 Displacement of 3H-nisoxetine from hNET. A general note: In a radioligand displacement assay an active substance lowers the binding of a labelled ligand.

By UniProt entry, the sequences of proteins in these tests, tags left out.
UniProt P23975, whole entry: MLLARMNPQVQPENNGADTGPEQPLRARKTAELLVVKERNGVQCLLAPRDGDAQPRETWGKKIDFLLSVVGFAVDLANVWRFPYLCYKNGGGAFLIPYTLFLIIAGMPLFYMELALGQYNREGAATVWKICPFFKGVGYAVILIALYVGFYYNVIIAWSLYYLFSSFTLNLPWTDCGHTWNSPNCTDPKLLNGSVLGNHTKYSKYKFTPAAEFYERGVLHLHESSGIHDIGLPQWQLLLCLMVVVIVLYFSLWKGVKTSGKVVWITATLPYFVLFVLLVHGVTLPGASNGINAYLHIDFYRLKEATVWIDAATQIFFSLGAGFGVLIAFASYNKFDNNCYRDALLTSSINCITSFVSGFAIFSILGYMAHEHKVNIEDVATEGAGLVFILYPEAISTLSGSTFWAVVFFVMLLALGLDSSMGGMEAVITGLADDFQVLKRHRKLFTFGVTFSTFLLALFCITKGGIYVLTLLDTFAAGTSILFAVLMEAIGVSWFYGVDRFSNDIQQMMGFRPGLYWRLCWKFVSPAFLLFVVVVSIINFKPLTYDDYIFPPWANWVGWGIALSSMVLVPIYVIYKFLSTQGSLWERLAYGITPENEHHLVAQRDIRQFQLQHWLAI

Experiment [2] has as its target T1, human noradrenaline transporter (hNET). As to the kind of experiment: cell-based.

On to `COc1ccc(C[C@@H]2NC(=O)CNC(=O)[C@@H]3CSSC[C@H](NC(=O)[C@H](CC(C)C)NC(=O)[C@H](CCCCN)NC2=O)C(=O)N[C@@H](Cc2c[nH]cn2)C(=O)N2C[C@H](O)C[C@H]2C(=O)N[C@H](C(N)=O)CSSC[C@H](NC(=O)[C@@H](NC(=O)CNC(=O)[C@H](CCCNC(=N)N)NC(=O)[C@@H](N)Cc2c[nH]c4ccccc24)C(C)C)C(=O)N3)cc1` [compound 20], for which the results for the IC50 in experiment [1] and in experiment [2] were 38 nM and 25.7 nM, respectively.
The corresponding values for `CCCC[C@H](NC(=O)CNC(=O)[C@@H](N)CCCN)C(=O)N[C@H]1CSSC[C@@H](C(N)=O)NC(=O)[C@@H]2C[C@@H](O)CN2C(=O)[C@H](Cc2c[nH]cn2)NC(=O)[C@@H]2CSSC[C@H](NC1=O)C(=O)NCC(=O)N[C@@H](Cc1ccc(OC)cc1)C(=O)N[C@@H](CCCCN)C(=O)N[C@@H](CCCC)C(=O)N2` [compound 48] are 132 nM and 67.6 nM.
For `CC(C)C[C@@H]1NC(=O)[C@H](CCCCN)NC(=O)[C@H](Cc2ccc(O)cc2)NC(=O)CNC(=O)[C@@H]2CSSC[C@H](NC1=O)C(=O)N[C@@H](Cc1c[nH]cn1)C(=O)N1C[C@H](O)C[C@H]1C(=O)N[C@H](C(N)=O)CSSC[C@H](NC(=O)[C@@H](NC(=O)CNC(=O)[C@@H](N)CCCCN(C)C)C(C)C)C(=O)N2` [compound 127], in that order: 1550 nM and 347 nM.
Take `CCCC[C@H](NC(=O)CNC(=O)[C@@H](N)CCCN)C(=O)N[C@H]1CSSC[C@@H](C(N)=O)NC(=O)[C@@H]2C[C@@H](O)CN2C(=O)[C@H](Cc2c[nH]cn2)NC(=O)[C@@H]2CSSC[C@H](NC1=O)C(=O)NCC(=O)N[C@@H](Cc1ccc(OC)cc1)C(=O)N[C@@H](CCCCN)C(=O)N[C@@H](CCC(C)C)C(=O)N2` [compound 42]: the values for the IC50 in experiment [1] and in experiment [2] were 117 nM and 46.8 nM, respectively.
As to `CCCC[C@H](NC(=O)CNC(=O)C[C@@H](N)CCCCN)C(=O)N[C@H]1CSSC[C@@H](C(N)=O)NC(=O)[C@@H]2C[C@@H](O)CN2C(=O)[C@H](Cc2c[nH]cn2)NC(=O)[C@@H]2CSSC[C@H](NC1=O)C(=O)NCC(=O)N[C@@H](Cc1ccc(O)cc1)C(=O)N[C@@H](CCCCN)C(=O)N[C@@H](CCC(C)C)C(=O)N2` [compound 27], the IC50 (in general, the midpoint of a concentration-inhibition curve) in experiment [1] is 56.2 nM; in experiment [2], 57.5 nM.
For `CC(C)C[C@@H]1NC(=O)[C@H](CCCCN)NC(=O)[C@H](Cc2ccc(O)cc2)NC(=O)CNC(=O)[C@@H]2CSSC[C@H](NC1=O)C(=O)N[C@@H](Cc1c[nH]cn1)C(=O)N1C[C@H](O)C[C@H]1C(=O)N[C@H](C(N)=O)CSSC[C@H](N)C(=O)N2` [compound 173], the IC50 in experiment [1] was 12900 nM; in experiment [2], 4170 nM.
On to `COc1ccc(C[C@@H]2NC(=O)CNC(=O)[C@@H]3CSSC[C@H](NC(=O)[C@H](CC(C)C)NC(=O)[C@H](CCCCN)NC2=O)C(=O)N[C@@H](Cc2c[nH]cn2)C(=O)N2C[C@H](O)C[C@H]2C(=O)N[C@H](C(N)=O)CSSC[C@H](NC(=O)[C@@H](NC(=O)CNC(=O)[C@H](N)CCCNC(=N)N)C(C)C)C(=O)N3)cc1` [compound 77], for which the results for the IC50 in experiment [1] and in experiment [2] were 275 nM and 123 nM, respectively.
On to `COc1ccc(C[C@@H]2NC(=O)CNC(=O)[C@@H]3CSSC[C@H](NC(=O)[C@H](CC(C)C)NC(=O)[C@H](CCCCN)NC2=O)C(=O)N[C@@H](Cc2c[nH]cn2)C(=O)N2C[C@H](O)C[C@H]2C(=O)N[C@H](C(N)=O)CSSC[C@H](NC(=O)[C@H](CC(C)C)NC(=O)CNC(=O)[C@@H](N)CCCN)C(=O)N3)cc1` [compound 51], for which the 50% inhibitory concentration (IC50) in experiment [1] was 145 nM; in experiment [2], 77.6 nM.
For `COc1ccc(C[C@@H]2NC(=O)CNC(=O)[C@@H]3CSSC[C@H](NC(=O)[C@H](CC(C)C)NC(=O)[C@H](CCCCN)NC2=O)C(=O)N[C@@H](CCCNC(=N)N)C(=O)N2C[C@H](O)C[C@H]2C(=O)N[C@H](C(N)=O)CSSC[C@H](NC(=O)[C@H](CC(C)C)NC(=O)CNC(=O)[C@H](CCCNC(=N)N)NC(=O)[C@@H](N)Cc2ccc(O)cc2)C(=O)N3)cc1` [compound 13], in that order: 14.1 nM and 25.1 nM.
On to `CCCC[C@H](N)C(=O)NCC(=O)N[C@H](C(=O)N[C@H]1CSSC[C@@H](C(N)=O)NC(=O)[C@@H]2C[C@@H](O)CN2C(=O)[C@H](Cc2c[nH]cn2)NC(=O)[C@@H]2CSSC[C@H](NC1=O)C(=O)NCC(=O)N[C@@H](Cc1ccc(OC)cc1)C(=O)N[C@@H](CCCCN)C(=O)N[C@@H](CC(C)C)C(=O)N2)C(C)C` [compound 107], for which the IC50 in experiment [1] is 832 nM; in experiment [2], 219 nM.
Take `CC(C)C[C@@H]1NC(=O)[C@H](C)NC(=O)[C@H](Cc2ccc(O)cc2)NC(=O)CNC(=O)[C@@H]2CSSC[C@H](NC1=O)C(=O)N[C@@H](Cc1c[nH]cn1)C(=O)N1C[C@H](O)C[C@H]1C(=O)N[C@H](C(N)=O)CSSC[C@H](NC(=O)[C@@H](NC(=O)CNC(=O)[C@@H](N)CC(N)=O)C(C)C)C(=O)N2` [compound 203]: in experiment [1], the “Av IC50 Displacement of 3H-nisoxetine from hNET” value was −2.00. This compound also gave an IC50 in experiment [2] of 13800 nM.
As for `CC(C)CC[C@@H]1NC(=O)[C@H](CCCCN)NC(=O)[C@H](Cc2ccc(O)cc2)NC(=O)CNC(=O)[C@@H]2CSSC[C@H](NC1=O)C(=O)N[C@@H](Cc1c[nH]cn1)C(=O)N1CCC[C@H]1C(=O)N[C@H](C(N)=O)CSSC[C@H](NC(=O)[C@@H](NC(=O)CNC(=O)[C@H](CC(N)=O)NC(=O)[C@@H](N)Cc1ccc(O)cc1)C(C)C)C(=O)N2` [compound 56], the IC50 in experiment [1] is 166 nM; in experiment [2], 79.4 nM.
For `CCCC[C@H](NC(=O)CNC(=O)[C@@H](N)CC(N)=O)C(=O)N[C@H]1CSSC[C@@H](C(N)=O)NC(=O)[C@@H]2C[C@@H](O)CN2C(=O)[C@H](Cc2c[nH]cn2)NC(=O)[C@@H]2CSSC[C@H](NC1=O)C(=O)NCC(=O)N[C@@H](Cc1ccc(O)cc1)C(=O)N[C@@H](CCCCN)C(=O)N[C@@H](CCCC)C(=O)N2` [compound 57], the IC50 is 170 nM in experiment [1] and 115 nM in experiment [2].
On to `CCCC[C@H](NC(=O)CNC(=O)[C@H](CCCNC(=N)N)NC(=O)[C@H](Cc1ccccc1)NC(=O)[C@@H](N)Cc1ccc(O)cc1)C(=O)N[C@H]1CSSC[C@@H](C(N)=O)NC(=O)[C@@H]2C[C@@H](O)CN2C(=O)[C@H](CCCNC(=N)N)NC(=O)[C@@H]2CSSC[C@H](NC1=O)C(=O)NCC(=O)N[C@@H](Cc1ccc(OC)cc1)C(=O)N[C@@H](CCCCN)C(=O)N[C@@H](CC(C)C)C(=O)N2` [compound 28], for which the IC50 in experiment [1] was 72.4 nM; in experiment [2], 69.2 nM.
As to `CC[C@H](NC(=O)CNC(=O)[C@@H](N)CC(N)=O)C(=O)N[C@H]1CSSC[C@@H](C(N)=O)NC(=O)[C@@H]2C[C@@H](O)CN2C(=O)[C@H](Cc2c[nH]cn2)NC(=O)[C@@H]2CSSC[C@H](NC1=O)C(=O)NCC(=O)N[C@@H](Cc1ccc(O)cc1)C(=O)N[C@@H](CCCCN)C(=O)N[C@@H](CC(C)C)C(=O)N2` [compound 160], the IC50 in experiment [1] is 5010 nM; in experiment [2], 912 nM.
The corresponding values for `CCCC[C@H](NC(=O)CNC(=O)C[C@@H](N)CCCCN)C(=O)N[C@H]1CSSC[C@@H](C(N)=O)NC(=O)[C@@H]2C[C@@H](O)CN2C(=O)[C@H](Cc2c[nH]cn2)NC(=O)[C@@H]2CSSC[C@H](NC1=O)C(=O)NCC(=O)N[C@@H](Cc1ccc(OC)cc1)C(=O)N[C@@H](CCCCN)C(=O)N[C@@H](CCC(C)C)C(=O)N2` [compound 19] are 35.5 nM and 44.7 nM.
In the case of `CCCC[C@H](NC(=O)CNC(=O)[C@H](Cc1ccc(O)cc1)NC(=O)[C@H](CCCNC(=N)N)NC(=O)[C@@H](N)Cc1ccccc1)C(=O)N[C@H]1CSSC[C@@H](C(N)=O)NC(=O)[C@@H]2C[C@@H](O)CN2C(=O)[C@H](CCCNC(=N)N)NC(=O)[C@@H]2CSSC[C@H](NC1=O)C(=O)NCC(=O)N[C@@H](Cc1ccc(OC)cc1)C(=O)N[C@@H](CCCCN)C(=O)N[C@@H](CC(C)C)C(=O)N2` [compound 22], the IC50 in experiment [1] is 42.7 nM; in experiment [2], 81.3 nM.
In the case of `CC(C)C[C@H](NC(=O)CNC(=O)[C@@H](N)CC(N)=O)C(=O)N[C@H]1CSSC[C@@H](C(N)=O)NC(=O)[C@@H]2C[C@@H](O)CN2C(=O)[C@H](Cc2c[nH]cn2)NC(=O)[C@@H]2CSSC[C@H](NC1=O)C(=O)NCC(=O)N[C@@H](Cc1ccc(O)cc1)C(=O)N[C@@H](CCCCN)C(=O)N[C@@H](CC(C)C)C(=O)N2` [compound 115], the IC50 in experiment [1] is 1120 nM; in experiment [2], 245 nM.
Take `CC(C)C[C@@H]1NC(=O)[C@H](CCCCN)NC(=O)[C@H](Cc2ccc(O)cc2)NC(=O)CNC(=O)[C@@H]2CSSC[C@H](NC1=O)C(=O)N[C@@H](Cc1c[nH]cn1)C(=O)N1C[C@H](O)C[C@H]1C(=O)N[C@H](C(N)=O)CSSC[C@H](NC(=O)[C@@H](NC(=O)CNC(=O)c1ccccc1N)C(C)C)C(=O)N2` [compound 136]: the results for the IC50 in experiment [1] and in experiment [2] were 2090 nM and 457 nM, respectively.
Take `CCCC[C@H](NC(=O)CNC(=O)[C@@H](N)CC(N)=O)C(=O)N[C@H]1CSSC[C@@H](C(N)=O)NC(=O)[C@@H]2C[C@@H](O)CN2C(=O)[C@H](Cc2c[nH]cn2)NC(=O)[C@@H]2CSSC[C@H](NC1=O)C(=O)NCC(=O)N[C@@H](Cc1ccc(OC)cc1)C(=O)N[C@@H](CCCCN)C(=O)N[C@@H](CCC(C)C)C(=O)N2` [compound 47]: the IC50 in experiment [1] was 132 nM; in experiment [2], 166 nM.
The corresponding values for `COc1ccc(C[C@@H]2NC(=O)CNC(=O)[C@@H]3CSSC[C@H](NC(=O)[C@H](CC(C)C)NC(=O)[C@H](CCCCN)NC2=O)C(=O)N[C@@H](Cc2c[nH]cn2)C(=O)N2C[C@H](O)C[C@H]2C(=O)N[C@H](C(N)=O)CSSC[C@H](NC(=O)[C@@H](NC(=O)CNC(=O)[C@H](CC(N)=O)NC(=O)[C@@H]2CCC(=O)N2)C(C)C)C(=O)N3)cc1` [compound 140] are 2290 nM and 263 nM.
With `CC(C)C[C@@H]1NC(=O)[C@H](CCCCN)NC(=O)[C@H](Cc2ccc(O)cc2)NC(=O)CNC(=O)[C@@H]2CSSC[C@H](NC1=O)C(=O)N[C@@H](Cc1c[nH]cn1)C(=O)N1C[C@H](O)C[C@H]1C(=O)N[C@H](C(N)=O)CSSC[C@H](NC(=O)[C@@H](NC(=O)CNC(=O)[C@H](CC(N)=O)NC(=O)[C@@H](N)CCc1ccccc1)C(C)C)C(=O)N2` [compound 67], the IC50 in experiment [1] was 204 nM; in experiment [2] it was 75.9 nM.

These data come from US7507717B2 (Xenome Ltd., priority 2002, dated 2009).
